# According to patent US9534016B2, “Netrin loop peptide mimetics and uses thereof” (Buck Institute for Research on Aging, priority 2011, dated 2017):
# Sequences of proteins named here, by UniProt entry; tags and fusion partners are left off. A change or cut given only in a name is not applied to a line headed by its entry.
# UniProt P05067: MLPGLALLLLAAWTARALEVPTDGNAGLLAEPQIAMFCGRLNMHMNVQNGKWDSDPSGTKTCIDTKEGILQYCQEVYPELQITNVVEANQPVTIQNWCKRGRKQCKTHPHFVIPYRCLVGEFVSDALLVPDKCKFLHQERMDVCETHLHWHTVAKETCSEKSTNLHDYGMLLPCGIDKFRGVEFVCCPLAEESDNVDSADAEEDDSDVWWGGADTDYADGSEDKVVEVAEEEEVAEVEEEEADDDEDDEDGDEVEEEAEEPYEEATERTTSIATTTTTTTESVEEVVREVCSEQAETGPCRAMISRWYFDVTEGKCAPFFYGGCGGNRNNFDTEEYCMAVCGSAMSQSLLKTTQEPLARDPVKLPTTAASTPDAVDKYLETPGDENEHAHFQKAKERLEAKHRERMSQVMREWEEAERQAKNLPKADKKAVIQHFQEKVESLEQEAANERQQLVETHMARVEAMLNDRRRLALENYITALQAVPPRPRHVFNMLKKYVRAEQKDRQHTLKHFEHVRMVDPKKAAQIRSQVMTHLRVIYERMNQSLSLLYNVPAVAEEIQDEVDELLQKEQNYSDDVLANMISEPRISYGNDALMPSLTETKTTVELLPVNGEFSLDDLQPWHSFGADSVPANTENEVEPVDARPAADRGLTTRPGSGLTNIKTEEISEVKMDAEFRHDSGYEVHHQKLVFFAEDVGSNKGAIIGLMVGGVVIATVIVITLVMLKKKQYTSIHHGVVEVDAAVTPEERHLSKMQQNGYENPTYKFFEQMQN
# Legend:
# eAPP575-624 = eAPP575-624 (Homo sapiens, UniProt P05067); test: Surface plasmon resonance (SPR) binding to eAPP fragments; details: data shown for eAPP575-624
# sAPPα/Aβ42 ratio = sAPPα/Aβ42 ratio by AlphaLisa assay in APP transfected cells
# [1] = system: ERK phosphorylation associated with APP based cell signaling; test: ERK phosphorylation, Western blot, B103 cells co-transfected with APP
# Excerpt: This effect is not seen with cyclic peptide-2 or cyclic peptide-3. Netrin-1 induces ERK phosphorylation both in APP cells and in cells without APP such as having DCC. Cyclic peptide-1 is APP specific
# ERK phosphorylation is associated with cell signaling. […] This assay was based on a western blot analysis.
substance,measurement,setting,value
C-I-D-P-C,binding to eAPP fragments by SPR,eAPP575-624,binds eAPP fragments
same,sAPPalpha/Abeta42 ratio,sAPPα/Aβ42 ratio; 100 μM in APP CHO cells,specific increase
same,sAPPα/Aβ42 ratio,"sAPPα/Aβ42 ratio; AlphLisa assay, stably transfected APP in B103 cells, over untreated controls",specific increase
same,specificity of ERK phosphorylation for APP,[1]; APP cells versus cells without APP,APP specific
same,ERK phosphorylation,"[1]; Western blot, APP cells (B103 co-transfected with APP), cyclic peptide-1 at 21 uM",ERK phosphorylation
same,modulate ERK phosphorylation and/or switch APP processing from aberrant to normal,[1]; cyclized loop peptides prepared and tested,shown to modulate ERK phosphorylation and/or to switch APP processing from aberrant to normal
